Test system: CHIR-induced hPSCs
Assay: Growth factor screen for PAX2 induction in CHIR-induced mesendodermal cells (immunostaining)
Type: cell-based, human
Details: CHIR 24 hours then low doses of factor, day 4
Method: For immunofluorescence studies, cultures are washed once with PBS (Invitrogen) and fixed in 4% paraformaldehyde for 15 min at room temperature (RT). Fixed cells are then washed three times in PBS and incubated in blocking buffer (0.3% Triton X-100 (Fisher Scientific) and 5% normal donkey serum (EMD Millipore) in PBS) for 1 hour at RT.
The cells are then incubated with primary antibody overnight at 4° C. or for 2 hours at RT in antibody dilution buffer (0.3% Triton X-100 and 1% BSA (Roche) in PBS). Cells are then washed three times in PBS and incubated with Alexa Fluor 488-, 555-, or 647-conjugated secondary antibodies (1:500) (Molecular Probes) in antibody dilution buffer for 1 hour at RT. For immunostaining with Biotinylated Lotus Tetragonolobus Lectin (LTL, Vector Labs), a Streptavidin/Biotin Blocking Kit (Vector Labs) and Alexa Fluor 488- or 647-conjugated Streptavidin (Molecular Probes) were used according to manufacturer's instructions.
Nuclei can be counterstained with DAPI (Sigma). A list of primary antibodies can be found in Table 1. Immunofluorescence is visualized using an inverted fluorescence microscope (Nikon Eclipse Ti, Tokyo, Japan). Quantification is performed by counting a minimum of five random fields at 10× magnification. […]

B1: BMP-2: candidate growth factor screened for PAX2 induction (protein, UniProt P12643 283-396, looked up)
Bone morphogenetic protein 2: QAKHKQRKRLKSSCKRHPLYVDFSDVGWNDWIVAPPGYHAFYCHGECPFPLADHLNSTNHAIVQTLVNSVNSKIPKACCVPTELSAISMLYLDENEKVVLKNYQDMVVEGCGCR
  PAX2 expression compared to vehicle control: modest increases
